Data on five molecules can be found in ChEMBL document CHEMBL1145982, “Novel dihydrofolate reductase inhibitors. Structure-based versus diversity-based library design and high-throughput synthesis and screening” (J Med Chem, 2003).

By UniProt entry, the sequences of proteins in these tests, tags left out. Residues count along the entry.
UniProt P0A017, 2-159 limits assumed: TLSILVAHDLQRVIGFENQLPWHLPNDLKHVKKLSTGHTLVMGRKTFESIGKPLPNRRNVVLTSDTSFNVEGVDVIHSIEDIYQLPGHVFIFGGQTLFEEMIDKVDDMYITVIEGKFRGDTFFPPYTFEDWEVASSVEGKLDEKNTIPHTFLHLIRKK

The assay deals with Dihydrofolate reductase (Staphylococcus aureus, UniProt P0A017). Description: Inhibitory activity against TMP-Resistance Dihydrofolate reductase from Staphylococcus aureus 157/4696.
A word on the IC50: it is the concentration that gives 50% inhibition. A low value points to higher potency. In the case of `COc1ccc2c(c1)CN(Cc1cnc(N)nc1N)CC2c1cccc([N+](=O)[O-])c1` (stereo not given), the IC50 came to 3.2 µM.

`Nc1ncc(CN2CCc3c([nH]c4ccccc34)C2)c(N)n1`: the IC50 came out at 7.8 µM.

For `CC1c2ccc3c4ccccc4n(C)c3c2CCN1Cc1cnc(N)nc1N` (stereo not given), half-maximal inhibition (IC50) was put at 6.8 µM.

In turn, `CC1c2cc(Cc3ccccc3)c(-c3ccccc3)n2CCN1Cc1cnc(N)nc1N` (stereo not given) gave an IC50 of 0.042 µM.

Molecule `CSc1c2n(c3cc(Cl)ccc13)CCN(Cc1cnc(N)nc1N)C2` registered an IC50 of 0.073 µM.
